Ratio and Relative potency data for 11 compounds are collected here from ChEMBL document CHEMBL1123894, “Structure-activity relationships of cyclic opioid peptide analogues containing a phenylalanine residue in the 3-position” (J Med Chem, 1987).

The chains behind the UniProt entries cited, without tags or fusion partners.
UniProt P41143, whole entry, looked up: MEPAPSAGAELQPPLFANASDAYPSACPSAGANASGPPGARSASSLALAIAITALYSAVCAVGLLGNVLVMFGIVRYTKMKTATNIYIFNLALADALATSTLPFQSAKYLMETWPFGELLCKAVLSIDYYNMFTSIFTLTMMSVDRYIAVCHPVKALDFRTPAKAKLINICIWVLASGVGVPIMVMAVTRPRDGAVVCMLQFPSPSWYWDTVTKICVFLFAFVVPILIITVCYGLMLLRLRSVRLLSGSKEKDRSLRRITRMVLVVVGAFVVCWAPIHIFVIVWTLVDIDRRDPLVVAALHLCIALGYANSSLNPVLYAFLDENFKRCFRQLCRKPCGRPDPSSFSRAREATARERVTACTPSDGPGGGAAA
UniProt P35372, whole entry, looked up: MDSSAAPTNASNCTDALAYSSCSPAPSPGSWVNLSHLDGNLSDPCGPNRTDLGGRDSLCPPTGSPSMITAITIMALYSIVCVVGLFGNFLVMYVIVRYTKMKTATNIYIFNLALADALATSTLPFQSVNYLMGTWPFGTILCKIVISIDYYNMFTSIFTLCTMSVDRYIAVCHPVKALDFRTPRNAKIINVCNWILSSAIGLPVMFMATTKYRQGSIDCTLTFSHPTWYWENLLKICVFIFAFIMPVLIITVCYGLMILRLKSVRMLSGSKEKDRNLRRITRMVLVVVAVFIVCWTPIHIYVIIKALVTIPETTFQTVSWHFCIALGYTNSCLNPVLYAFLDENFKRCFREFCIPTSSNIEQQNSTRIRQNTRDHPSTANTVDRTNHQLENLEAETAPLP
UniProt P33533, whole entry, looked up: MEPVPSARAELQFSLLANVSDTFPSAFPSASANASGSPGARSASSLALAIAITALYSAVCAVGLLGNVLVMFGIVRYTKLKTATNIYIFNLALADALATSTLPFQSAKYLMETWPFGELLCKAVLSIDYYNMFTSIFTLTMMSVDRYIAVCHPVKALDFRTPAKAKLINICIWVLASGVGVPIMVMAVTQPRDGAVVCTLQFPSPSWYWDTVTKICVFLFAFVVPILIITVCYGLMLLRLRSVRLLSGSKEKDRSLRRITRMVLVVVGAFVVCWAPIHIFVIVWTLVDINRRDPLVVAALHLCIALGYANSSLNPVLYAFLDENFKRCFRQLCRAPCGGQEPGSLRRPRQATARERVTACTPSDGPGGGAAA
UniProt P33535, whole entry, looked up: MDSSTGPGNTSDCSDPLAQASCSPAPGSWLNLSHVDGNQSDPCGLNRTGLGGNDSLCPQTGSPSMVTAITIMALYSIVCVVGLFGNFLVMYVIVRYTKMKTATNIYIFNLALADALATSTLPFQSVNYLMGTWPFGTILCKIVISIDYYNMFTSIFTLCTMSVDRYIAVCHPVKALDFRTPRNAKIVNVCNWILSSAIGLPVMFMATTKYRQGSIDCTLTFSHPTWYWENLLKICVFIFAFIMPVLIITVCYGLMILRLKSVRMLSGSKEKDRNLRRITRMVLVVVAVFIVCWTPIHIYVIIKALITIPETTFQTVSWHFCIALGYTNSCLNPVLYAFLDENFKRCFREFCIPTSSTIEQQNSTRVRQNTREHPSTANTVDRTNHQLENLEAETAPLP
UniProt P32300, whole entry, looked up: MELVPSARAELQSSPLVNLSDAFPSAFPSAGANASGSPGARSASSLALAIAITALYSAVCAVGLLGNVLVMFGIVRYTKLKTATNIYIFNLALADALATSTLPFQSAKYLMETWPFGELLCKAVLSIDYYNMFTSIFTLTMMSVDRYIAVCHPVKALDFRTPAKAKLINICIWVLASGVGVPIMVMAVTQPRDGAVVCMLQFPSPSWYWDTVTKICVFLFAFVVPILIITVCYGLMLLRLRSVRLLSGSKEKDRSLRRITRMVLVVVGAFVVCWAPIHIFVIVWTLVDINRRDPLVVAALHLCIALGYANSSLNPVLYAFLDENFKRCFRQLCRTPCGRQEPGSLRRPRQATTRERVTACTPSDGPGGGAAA
UniProt P97266, whole entry, looked up: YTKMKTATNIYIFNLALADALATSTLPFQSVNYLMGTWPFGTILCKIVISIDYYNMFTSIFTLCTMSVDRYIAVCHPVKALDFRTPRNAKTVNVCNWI

Where only a bound is given, the exact number is not on record here.

Experiment [1] in a line: IC50 ratio of the compound (MVD/GPI).
For experiment [2], the target named is Opioid receptors; mu & delta (Homo sapiens) (UniProt P41143+P35372). The experiment in a line: Selectivity ratio for delta and mu opioid receptors.
The target in experiment [3] is Delta-type opioid receptor (Rattus norvegicus) (UniProt P33533). The experiment in a line: Inhibition of [3H]DSLET binding to rat brain membrane Opioid receptor delta 1 compared to [Leu5]-enkephalin.
Experiment [4] deals with Mu-type opioid receptor (Rattus norvegicus) (UniProt P33535). Kind of experiment: Binding affinity towards Opioid receptor mu 1 in rat brain membrane using [3H]DAGO as radioligand and potency relative to [Leu5]-enkephalin was reported.
In experiment [5] the target is Delta-type opioid receptor (Mus musculus) (UniProt P32300). The experiment in a line: Inhibitory activity towards electrically induced contractions in mouse vas deferens expressing delta opioid receptor relative to [Leu5]-enkephalin activity.
Experiment [6] addresses Mu-type opioid receptor (Cavia porcellus) (UniProt P97266). The experiment in a line: Inhibitory activity towards electrically induced contractions in guinea pig ileum expressing mu opioid receptor was determined relative to the [Leu5]-enkephalin activity.
The target is the same in experiment [7]. The experiment in a line: Inhibitory activity towards electrically induced contractions in guinea pig ileum expressing Opioid receptor mu 1 was determined relative to the [Leu5]-enkephalin activity.
Experiment [8] concerns the target Mu-type opioid receptor (Rattus norvegicus) (UniProt P33535). Kind of experiment: Binding affinity towards mu Opioid receptor in rat brain membrane using [3H]DAGO as radioligand and potency relative to [Leu5]-enkephalin was reported.
Experiment [9] deals with Mu-type opioid receptor (Cavia porcellus) (UniProt P97266). Kind of experiment: Inhibitory activity towards Opioid receptor mu 1 using guinea pig ileum (GPI) assay was determined relative to the [Leu5]-enkephalin activity.
The target in experiment [10] is Delta-type opioid receptor (Homo sapiens, UniProt P41143). The experiment in a line: Inhibitory activity towards delta Opioid receptor using guinea pig ileum (GPI) assay was determined relative to the [Leu5]-enkephalin activity. The conditions noted are these: Cavia porcellus.

Turning to `NC(=O)[C@@H]1CC(=O)NCCC[C@@H](NC(=O)[C@@H](N)Cc2ccc(O)cc2)C(=O)N[C@@H](Cc2ccccc2)C(=O)N1`, the results for the Ratio in [1] and in experiment [2] were 107 and 213, respectively. For the same compound, the Relative potency in experiment [3] is 0.00114; in experiment [4], 0.907; in [5], 0.00294; in experiment [6] it was 6.8.

Regarding `NC(=O)[C@@H]1CC(=O)NCCC[C@@H](NC(=O)[C@@H](N)Cc2ccc(O)cc2)C(=O)N[C@@H](Cc2ccc([N+](=O)[O-])cc2)C(=O)N1`, the Ratio is over 43 in experiment [1] and 18.5 in experiment [2]. In addition, the Relative potency in experiment [3] was 0.0005; in experiment [4], 0.0345; in [5] it was under 0.000114; in experiment [7], 0.105.

In the case of `NC(=O)[C@@H]1CCNC(=O)C[C@@H](NC(=O)[C@@H](N)Cc2ccc(O)cc2)C(=O)N[C@@H](Cc2ccccc2)C(=O)N1`, the Ratio in experiment [1] was 7.28; in experiment [2], 168. Further, the Relative potency in experiment [3] is 0.000607; in experiment [4] it was 0.38; in experiment [5] it was 0.00562; in [7], 0.882.

As to `NC(=O)[C@@H]1CC(=O)NCCC[C@@H](NC(=O)[C@@H](N)Cc2ccc(O)cc2)C(=O)N[C@H](Cc2ccccc2)C(=O)N1`, the Ratio in experiment [2] is 125. The Relative potency was under 6.7e-07 in experiment [3], 0.0031 in experiment [4], under 0.00132 in [5] and under 0.0117 in [7].

With `NC(=O)[C@@H]1CC(=O)NCCC[C@@H](NC(=O)[C@@H](N)Cc2ccc(O)cc2)C(=O)N[C@@H](C2CCCCC2)C(=O)N1`, the Ratio in experiment [1] is 0.0902; in [2], 8.02. Moreover, the Relative potency in experiment [3] is 0.000709; in [8] it was 0.0212; in experiment [5], 0.00687; in experiment [7] it was 0.0134.

Regarding `NC(=O)[C@@H]1CC(=O)NCCC[C@@H](NC(=O)[C@@H](N)Cc2ccc(O)cc2)C(=O)N[C@@H](CCc2ccccc2)C(=O)N1`, the Ratio in experiment [1] worked out at 12.3; in experiment [2], 71.3. In addition, the Relative potency in experiment [3] is 0.00298; in [4], 0.792; in experiment [5], 0.00832; in experiment [7] it was 2.22.

As to `NC(=O)[C@H]1CC(=O)NCCC[C@@H](NC(=O)[C@@H](N)Cc2ccc(O)cc2)C(=O)N[C@@H](Cc2ccccc2)C(=O)N1`, the Ratio came to 7.61 in [1] and 19.4 in experiment [2]. Moreover, the Relative potency in [3] was 0.006; in experiment [4], 0.435; in [5], 0.00237; in experiment [7], 0.389.

Turning to `NC(=O)[C@@H]1CCCNC(=O)C[C@@H](NC(=O)[C@@H](N)Cc2ccc(O)cc2)C(=O)N[C@@H](Cc2ccccc2)C(=O)N1`, the Ratio in experiment [1] was 16.4; in [2], 138. For the same compound, the Relative potency turned out to be 0.00192 in experiment [3], 0.987 in experiment [4], 0.00133 in [5] and 0.471 in [7].

As for `NC(=O)[C@@H]1CSSC[C@@H](NC(=O)[C@@H](N)Cc2ccc(O)cc2)C(=O)N[C@@H](Cc2ccccc2)C(=O)N1`, the Ratio in [1] is 11.4; in [2] it was 33.9. For the same compound, the Relative potency turned out to be 0.00678 in experiment [3], 3.8 in experiment [9], 0.0154 in [10] and 0.857 in [4].

On to `NC(=O)[C@@H]1CC(=O)NCCC[C@H](NC(=O)[C@@H](N)Cc2ccc(O)cc2)C(=O)N[C@@H](Cc2ccccc2)C(=O)N1`, for which the Ratio in [1] is over 5.95; in [2], over 12.4. Moreover, the Relative potency in experiment [3] is under 4.21e-05; in experiment [8], 0.00195; in experiment [5] it was under 0.000114; in experiment [7], 0.0146.

`CN1C(=O)[C@H](NC(=O)[C@@H](N)Cc2ccc(O)cc2)CCCNC(=O)C[C@@H](C(N)=O)NC(=O)[C@@H]1Cc1ccccc1`: the Ratio in experiment [1] came out at 0.214; in experiment [2], 7.87. In addition, the Relative potency worked out at 9e-05 in [3], 0.00264 in [4], 0.00826 in experiment [5] and 0.0381 in experiment [7].
